From US20240360179A1, “STAPLED PEPTIDES AND METHODS THEREOF” (FOG PHARMACEUTICALS, INC., priority 2021, published 2024)

By UniProt entry, the sequences of proteins in these tests, tags left out.
UniProt P35222, whole entry: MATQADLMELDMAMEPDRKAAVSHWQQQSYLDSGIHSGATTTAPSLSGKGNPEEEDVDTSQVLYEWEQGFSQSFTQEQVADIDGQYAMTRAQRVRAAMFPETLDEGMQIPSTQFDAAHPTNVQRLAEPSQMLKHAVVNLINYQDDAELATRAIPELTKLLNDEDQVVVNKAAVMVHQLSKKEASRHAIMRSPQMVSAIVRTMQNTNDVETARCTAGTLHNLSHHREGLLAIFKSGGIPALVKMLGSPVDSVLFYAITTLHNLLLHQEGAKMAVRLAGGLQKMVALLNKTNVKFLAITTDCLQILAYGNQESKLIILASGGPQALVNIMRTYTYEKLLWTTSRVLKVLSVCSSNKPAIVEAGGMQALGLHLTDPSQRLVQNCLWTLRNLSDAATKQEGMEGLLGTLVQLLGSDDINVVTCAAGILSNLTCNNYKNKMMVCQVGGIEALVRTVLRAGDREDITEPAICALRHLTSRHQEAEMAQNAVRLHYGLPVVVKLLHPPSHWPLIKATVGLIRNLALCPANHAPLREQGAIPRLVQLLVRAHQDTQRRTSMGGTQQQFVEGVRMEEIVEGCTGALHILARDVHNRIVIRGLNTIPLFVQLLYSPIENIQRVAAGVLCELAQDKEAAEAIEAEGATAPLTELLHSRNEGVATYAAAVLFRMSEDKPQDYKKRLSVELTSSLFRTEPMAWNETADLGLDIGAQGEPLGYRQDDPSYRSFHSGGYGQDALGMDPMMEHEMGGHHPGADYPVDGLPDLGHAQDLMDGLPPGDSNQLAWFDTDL

Experiments:
[1] = target: beta-catenin/TCF4 interaction (Homo sapiens, UniProt P35222); assay: cell-based; set-up: host or cells: HEK293; details: NanoBRET Abs IC50 (uM)
[2] = target: T1, full-length B-Catenin (Uniprot ID P35222) (Homo sapiens, UniProt P35222); assay: biochemical; assay type: binding; details: beta-Catenin FP IC50 (nM), competition fluorescence polarization
T1 construct: 10 nM full-length B-Catenin (Uniprot ID P35222)

| IC50 [1] [µM] | IC50 [2] [nM] | IC50 ([1]; absolute IC50) [µM] | Structure (SMILES) |
| --- | --- | --- | --- |
| 3 to 10 | < 50 | – | CC(=O)N1CCC[C@]12CC=CCCCC1(CCCC=CCCCOC(=O)N3CC[C@@]4(C3)NC(=O)[C@H](CCCCNC(=O)CC[C@@H](C(=O)N[C@@H](C)C(N)=O)NC(=O)[C@H](Cc3csc5ccccc35)NC(=O)[C@H](Cc3ccccc3C(F)(F)F)NC4=O)NC(=O)[C@H](Cc3ccccc3)NC(=O)[C@H](C)NC(=O)C(C)(C)NC(=O)[C@H](CCC(=O)O)NC(=O)[C@H](CC(=O)O)NC1=O)NC(=O)[C@H](CC(C)(C)C)NC(=O)[C@H](CC(=O)O)NC2=O (relative stereo) [I-198, Ac-PL3-Asp-Npg-B5-Asp-Glu-Aib-Ala-Phe-Lys*3-PyrS2-2F3MeF-BztA-GlnR*3-Ala-NH2] |
| > 10 | < 50 | – | CC(=O)N1CCC[C@]12CCCCCCC1(CCCCCCCCOC(=O)N3CC[C@@]4(C3)NC(=O)[C@H](CCCCNC(=O)CC[C@@H](C(=O)N[C@@H](C)C(N)=O)NC(=O)[C@H](Cc3csc5ccccc35)NC(=O)[C@H](Cc3ccccc3C(F)(F)F)NC4=O)NC(=O)[C@H](Cc3ccccc3)NC(=O)[C@H](C)NC(=O)[C@H](C)NC(=O)[C@H](Cc3cccc(C(=O)O)c3)NC(=O)[C@H](CC(=O)O)NC1=O)NC(=O)[C@H](CC(C)(C)C)NC(=O)[C@H](CC(=O)O)NC2=O (relative stereo) [I-77, Ac-PL3-Asp-Npg-B5-Asp-3COOHF-Ala-Ala-Phe-Lys*3-PyrS2-2F3MeF-BztA-GlnR*3-Ala-NH2] |
| – | < 50 | > 10 | CC(=O)N1CCC[C@]12CC=CCCCC1(CCCC=CCCCOC(=O)N3CC[C@@]4(C3)NC(=O)[C@H](CCCCNC(=O)CC[C@@H](C(=O)N[C@@H](C)C(N)=O)NC(=O)[C@H](Cc3csc5ccccc35)NC(=O)[C@H](Cc3ccsc3)NC4=O)NC(=O)[C@H](Cc3ccccc3)NC(=O)[C@H](C)NC(=O)[C@](C)(C(C)C)NC(=O)[C@H](Cc3cccc(C(=O)O)c3)NC(=O)[C@H](CC(=O)O)NC1=O)NC(=O)[C@H](CC(C)(C)C)NC(=O)[C@H](CC(=O)O)NC2=O (relative stereo) [I-434, Ac-PL3-Asp-Npg-B5-Asp-3COOHF-aMeV-Ala-Phe-Lys*3-PyrS2-3Thi-BztA-GlnR*3-Ala-NH2] |
| – | < 50 | > 10 | CC(=O)N1CCC[C@]12CC=CCCCC1(CCCC=CCCCOC(=O)N3CC[C@@]4(C3)NC(=O)[C@H](CCCCNC(=O)CC[C@@H](C(=O)N[C@@H](C)C(N)=O)NC(=O)[C@H](Cc3csc5ccccc35)NC(=O)[C@H](Cc3ccsc3)NC4=O)NC(=O)[C@H](Cc3ccccc3)NC(=O)C(C)(C)NC(=O)[C@H](C)NC(=O)[C@H](Cc3cccc(C(=O)O)c3)NC(=O)[C@H](CC(=O)O)NC1=O)NC(=O)[C@H](CC(C)(C)C)NC(=O)[C@H](CC(=O)O)NC2=O (single isomer, unassigned) [I-441, Ac-PL3-Asp-Npg-B5-Asp-3COOHF-Ala-Aib-Phe-Lys*3-PyrS2-3Thi-BztA-GlnR*3-Ala-NH2] |
| 3 to 10 | < 50 | – | CC(=O)N1CCC[C@]12CC=CCCCC1(CCCC=CCCCOC(=O)N3CC[C@@]4(C3)NC(=O)[C@H](COCc3cn(nn3)CCCC[C@@H](C(=O)N[C@@H](C)C(N)=O)NC(=O)[C@H](Cc3csc5ccccc35)NC(=O)[C@H](Cc3ccsc3)NC4=O)NC(=O)[C@H](Cc3ccccc3)NC(=O)[C@H](C)NC(=O)[C@H](C)NC(=O)[C@H](Cc3cccc(C(=O)O)c3)NC(=O)[C@H](CC(=O)O)NC1=O)NC(=O)[C@H](CC(C)(C)C)NC(=O)[C@H](CC(=O)O)NC2=O (relative stereo) [I-265, Ac-PL3-Asp-Npg-B5-Asp-3COOHF-Ala-Ala-Phe-sCH2S*3-PyrS2-3Thi-BztA-TriAzLys*3-Ala-NH2] |
| 1.5 to 3 | < 50 | – | CC(=O)N1CCC[C@]12CC=CCCCC1(CCCC=CCCCOC(=O)N3CC[C@@]4(C3)NC(=O)[C@H](CCCCNC(=O)CC[C@@H](C(=O)N[C@@H](C)C(N)=O)NC(=O)[C@H](Cc3csc5ccccc35)NC(=O)[C@H](Cc3ccsc3)NC4=O)NC(=O)[C@H](Cc3ccccc3)NC(=O)[C@H](C)NC(=O)[C@H]([C@@H](C)O)NC(=O)[C@H](Cc3cccc(C(=O)O)c3)NC(=O)[C@H](CC(=O)O)NC1=O)NC(=O)[C@H](CC(C)(C)C)NC(=O)[C@H](CC(=O)O)NC2=O (relative stereo) [I-72, Ac-PL3-Asp-Npg-B5-Asp-3COOHF-Thr-Ala-Phe-Lys*3-PyrS2-3Thi-BztA-GlnR*3-Ala-NH2] |
| – | < 50 | 3 to 10 | CC(=O)N1CCC[C@]12CC=CCCCC1(CCCC=CCCCOC(=O)N3CC[C@@]4(C3)NC(=O)[C@H](CCCCNC(=O)CC[C@@H](C(=O)N[C@@H](C)C(N)=O)NC(=O)[C@H](Cc3csc5ccccc35)NC(=O)[C@H](Cc3ccsc3)NC4=O)NC(=O)[C@H](Cc3ccccc3)NC(=O)[C@H](C)NC(=O)[C@H](Cc3c[nH]cn3)NC(=O)[C@H](Cc3cccc(C(=O)O)c3)NC(=O)[C@H](CC(=O)O)NC1=O)NC(=O)[C@H](CC(C)(C)C)NC(=O)[C@H](CC(=O)O)NC2=O (relative stereo) [I-387, Ac-PL3-Asp-Npg-B5-Asp-3COOHF-His-Ala-Phe-Lys*3-PyrS2-3Thi-BztA-GlnR*3-Ala-NH2] |
| – | < 50 | > 10 | CC(=O)N1CCC[C@]12CC=CCCCC1(CCCC=CCCCOC(=O)N3CC[C@@]4(C3)NC(=O)[C@H](CCCCNC(=O)CC[C@@H](C(=O)N[C@@H](C)C(N)=O)NC(=O)[C@H](Cc3csc5ccccc35)NC(=O)[C@H](Cc3ccsc3)NC4=O)NC(=O)[C@H](Cc3ccccc3)NC(=O)[C@H](CC(C)C)NC(=O)C(C)(C)NC(=O)[C@H](Cc3cccc(C(=O)O)c3)NC(=O)[C@H](CC(=O)O)NC1=O)NC(=O)[C@H](CC(C)(C)C)NC(=O)[C@H](CC(=O)O)NC2=O (single isomer, unassigned) [I-449, Ac-PL3-Asp-Npg-B5-Asp-3COOHF-Aib-Leu-Phe-Lys*3-PyrS2-3Thi-BztA-GlnR*3-Ala-NH2] |
| – | < 50 | > 10 | CC(=O)N1CCC[C@]12CC=CCCCC1(CCCC=CCCCOC(=O)N3CC[C@@]4(C3)NC(=O)[C@H](CCCCNC(=O)CC[C@@H](C(=O)N[C@@H](C)C(N)=O)NC(=O)[C@H](Cc3csc5ccccc35)NC(=O)[C@H](Cc3ccsc3)NC4=O)NC(=O)[C@H](Cc3ccccc3)NC(=O)[C@H](C)NC(=O)[C@](C)(Cc3ccccc3)NC(=O)[C@H](Cc3cccc(C(=O)O)c3)NC(=O)[C@H](CC(=O)O)NC1=O)NC(=O)[C@H](CC(C)(C)C)NC(=O)[C@H](CC(=O)O)NC2=O (relative stereo) [I-438, Ac-PL3-Asp-Npg-B5-Asp-3COOHF-aMeF-Ala-Phe-Lys*3-PyrS2-3Thi-BztA-GlnR*3-Ala-NH2] |
| 1.5 to 3 | < 50 | – | CC(=O)N1CCC[C@]12CC=CCCCC1(CCCC=CCCCOC(=O)N3CC[C@@]4(C3)NC(=O)[C@H](CCCCNC(=O)CC[C@@H](C(N)=O)NC(=O)[C@H](Cc3csc5ccccc35)NC(=O)[C@H](Cc3ccsc3)NC4=O)NC(=O)[C@H](Cc3ccccc3)NC(=O)[C@H](C)NC(=O)[C@H](C)NC(=O)[C@H](Cc3cccc(C(=O)O)c3)NC(=O)[C@H](CC(=O)O)NC1=O)NC(=O)[C@H](CC(C)C)NC(=O)[C@H](CC(=O)O)NC2=O (single isomer, unassigned) [I-11, Ac-PL3-Asp-Leu-B5-Asp-3COOHF-Ala-Ala-Phe-Lys*3-PyrS2-3Thi-BztA-GlnR*3-NH2] |
| – | < 50 | 3 to 10 | CC(=O)N1CCC[C@]12CC=CCCCC1(CCCC=CCCCOC(=O)N3CC[C@@]4(C3)NC(=O)[C@H](CCCCNC(=O)CC[C@@H](C(=O)N[C@@H](C)C(N)=O)NC(=O)[C@H](Cc3csc5ccccc35)NC(=O)[C@H](Cc3ccsc3)NC4=O)NC(=O)[C@H](Cc3c[nH]c4ccccc34)NC(=O)[C@H](C)NC(=O)C(C)(C)NC(=O)[C@H](Cc3cccc(C(=O)O)c3)NC(=O)[C@H](CC(=O)O)NC1=O)NC(=O)[C@H](CC(C)(C)C)NC(=O)[C@H](CC(=O)O)NC2=O (relative stereo) [I-359, Ac-PL3-Asp-Npg-B5-Asp-3COOHF-Aib-Ala-Trp-Lys*3-PyrS2-3Thi-BztA-GlnR*3-Ala-NH2] |
| 3 to 10 | < 50 | – | CC(=O)N1CCC[C@]12CC=CCCCC1(CCCC=CCCCOC(=O)N3CC[C@@]4(C3)NC(=O)[C@H](CCCCNC(=O)CC[C@@H](C(=O)N[C@@H](C)C(N)=O)NC(=O)[C@H](Cc3csc5ccccc35)NC(=O)[C@H](CC3CCCC3)NC4=O)NC(=O)[C@H](Cc3ccccc3)NC(=O)[C@H](C)NC(=O)C(C)(C)NC(=O)[C@H](Cc3cccc(C(=O)O)c3)NC(=O)[C@H](CC(=O)O)NC1=O)NC(=O)[C@H](CC(C)(C)C)NC(=O)[C@H](CC(=O)O)NC2=O (relative stereo) [I-284, Ac-PL3-Asp-Npg-B5-Asp-3COOHF-Aib-Ala-Phe-Lys*3-PyrS2-CypA-BztA-GlnR*3-Ala-NH2] |
| – | < 50 | 3 to 10 | CC(=O)N1CCC[C@]12CC=CCCCC1(CCCC=CCCCOC(=O)N3CC[C@@]4(C3)NC(=O)[C@H](CCCCNC(=O)CC[C@@H](C(=O)N[C@@H](CC(C)C)C(=O)N[C@@H](CC(=O)O)C(=O)N[C@@H](CC(C)C)C(N)=O)NC(=O)[C@H](Cc3csc5ccccc35)NC(=O)[C@H](Cc3ccsc3)NC4=O)NC(=O)[C@H](Cc3ccccc3)NC(=O)[C@H](C)NC(=O)C(C)(C)NC(=O)[C@H](Cc3cccc(C(=O)O)c3)NC(=O)[C@H](CC(=O)O)NC1=O)NC(=O)[C@H](CC(C)(C)C)NC(=O)[C@H](CC(=O)O)NC2=O (single isomer, unassigned) [I-502, Ac-PL3-Asp-Npg-B5-Asp-3COOHF-Aib-Ala-Phe-Lys*3-PyrS2-3Thi-BztA-GlnR*3-Leu-Asp-Leu-NH2] |
| – | < 50 | 3 to 10 | CC(=O)N1CCC[C@]12CC=CCCCC1(CCCC=CCCCOC(=O)N3CC[C@@]4(C3)NC(=O)[C@H](CCCCNC(=O)CC[C@@H](C(=O)N[C@@H](C)C(N)=O)NC(=O)[C@H](Cc3csc5ccccc35)NC(=O)[C@H](Cc3ccsc3)NC4=O)NC(=O)[C@H](Cc3ccccc3)NC(=O)[C@H]([C@@H](C)O)NC(=O)C(C)(C)NC(=O)[C@H](Cc3cccc(C(=O)O)c3)NC(=O)[C@H](CC(=O)O)NC1=O)NC(=O)[C@H](CC(C)(C)C)NC(=O)[C@H](CC(=O)O)NC2=O (relative stereo) [I-445, Ac-PL3-Asp-Npg-B5-Asp-3COOHF-Aib-Thr-Phe-Lys*3-PyrS2-3Thi-BztA-GlnR*3-Ala-NH2] |
